The text below walks through data of BindingDB's records for doi:10.1021/jm9905054 (Eisai, 2000).

The structures appear in SMILES notation.

The assay is described as follows: 50% inhibitory concentration against phosphodiesterase 5 (PDE5) from porcine platelets.

One may read the IC50 as the concentration that inhibits the measured activity by half. Read a low IC50 as greater potency. As to `O=C(O)C1CCN(c2nc(NCc3ccc4c(c3)OCO4)c3cc(Cl)ccc3n2)CC1` [Sodium; 1-{4-[(benzo[1,3]dioxol-5-ylmethyl)-amino]-6-chloro-quinazolin-2-yl}-piperidine-4-carboxylate], the IC50 was 3.7 nM. That is a single-digit nanomolar value.
